Experimental data published in PubChem BioAssay AID504326 (The Scripps Research Institute Molecular Screening Center, 2011).
The list shows a part of the results, in another mix than the full data. Active and inactive are the calls of the source. No stated cut-off is given here; in the data, active means activation above about 18%; inactive means the rest.

Amino acid sequences for entries named in this document (tags omitted).
UniProt P35372, whole entry, looked up: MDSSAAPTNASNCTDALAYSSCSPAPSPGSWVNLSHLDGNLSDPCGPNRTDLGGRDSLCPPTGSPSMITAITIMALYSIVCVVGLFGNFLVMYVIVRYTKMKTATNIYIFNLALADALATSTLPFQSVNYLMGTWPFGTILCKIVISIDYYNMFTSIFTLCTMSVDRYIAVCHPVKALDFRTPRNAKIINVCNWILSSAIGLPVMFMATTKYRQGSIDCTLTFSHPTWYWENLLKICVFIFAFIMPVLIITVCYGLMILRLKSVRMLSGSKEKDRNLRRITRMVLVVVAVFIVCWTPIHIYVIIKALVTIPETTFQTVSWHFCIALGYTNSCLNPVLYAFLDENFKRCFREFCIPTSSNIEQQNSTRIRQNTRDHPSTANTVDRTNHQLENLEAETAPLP
UniProt P41143, whole entry, looked up: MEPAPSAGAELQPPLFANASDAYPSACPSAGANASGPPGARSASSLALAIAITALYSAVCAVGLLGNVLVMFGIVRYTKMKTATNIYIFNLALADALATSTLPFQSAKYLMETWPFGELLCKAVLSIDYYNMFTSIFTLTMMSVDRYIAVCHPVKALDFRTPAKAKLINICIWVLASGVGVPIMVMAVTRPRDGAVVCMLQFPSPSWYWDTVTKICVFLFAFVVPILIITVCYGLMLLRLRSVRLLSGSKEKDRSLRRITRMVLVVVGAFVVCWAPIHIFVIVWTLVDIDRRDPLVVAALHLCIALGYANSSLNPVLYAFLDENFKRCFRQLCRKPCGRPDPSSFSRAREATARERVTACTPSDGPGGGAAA

target: Mu-type opioid receptor (Homo sapiens) + Delta-type opioid receptor (Homo sapiens) (UniProt P35372+P41143); assay: inducers of mu-delta opioid receptor heterodimers – cell-based, luminescence, primary screen (AID 504326); conditions: cells, OPRM1-OPRD1 heterodimerization, at 9.3 µM, hits give high values;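 further: 0% = vehicle-treated cells and 100% = reference agonist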

SMILES	activation
CC(C)C[C@H](NC(=O)N1CCn2c1nc1ccccc12)C(=O)NC1CC1	inactive: -1.89%
COc1ccc(NC(=O)CN(C)C(=O)Cn2cnc3c2c(=O)n(C)c(=O)n3C)cc1	inactive: -0.97%
CC1CCCC(C)N1C(=O)Cn1c(SCC(=O)Nc2ccc3c(c2)OCO3)nc2ccccc21 (stereo not given)	inactive: -0.91%
c1ccc2c(c1)nc1n2CCN1CCN1CCCC1	inactive: -3.03%
Cn1c(=O)c2c(ncn2CC(=O)N2CCN(S(=O)(=O)c3ccccc3)CC2)n(C)c1=O	inactive: -1.47%
CCOCCn1c(=O)c2c(nc3n2CCN3c2ccc(C)cc2)n(C)c1=O	inactive: -2.6%
Cc1ccccc1Oc1ccc2c(c1)[C@@H]1C[C@H](N(C)C(=O)NC3CCCCC3)[C@H]([C@H](C)O)C(=O)N1CC2	inactive: -0.63%
COc1ccc(OCC(O)Cn2c(=N)n(CCN3CCCCC3)c3ccccc32)cc1 (stereo not given)	inactive: -2.12%
C[C@@H](NC(=O)Cn1cnc2c(OCc3ccccc3)ncnc21)c1cccc2ccccc12	inactive: 2.79%
N#CCCN1CCn2c1nc1ccccc12	inactive: -1.33%
O=C(Cn1cnc2c(OCc3ccccc3)ncnc21)NCC1CCCO1 (stereo not given)	inactive: -3.31%
Cn1c(=O)c2ncn(CC(=O)N/N=C/c3ccco3)c2n(C)c1=O	inactive: -0.99%
c1ccc(CNc2nc3ccccc3n2CCN2CCOCC2)nc1	inactive: -1.23%
O=P(Nc1nccs1)(c1ccccc1)c1ccccc1	inactive: -2.41%
Cn1c(=O)n(CC(=O)N2CCOCC2)c2ccccc21	inactive: -1.3%
CC(C)C(=O)NC(Sc1ccccc1)C(Cl)(Cl)Cl (stereo not given)	inactive: 2.73%
CCC(C(=O)NC1CCCCC1)n1c(SCc2cccc(F)c2)nc2ccncc21 (stereo not given)	inactive: 0.69%
CC(/C=N/NC(=O)Cn1cnc2c1c(=O)n(C)c(=O)n2C)=C\c1ccccc1	inactive: -1.63%
CC(C)c1ccccc1NC(=O)Cn1c(-c2ccccc2Cl)nc2ccccc21	inactive: -2.3%
CC(C)C[C@H](NC(=O)N1CCn2c1nc1ccccc12)C(=O)N[C@H](Cc1ccccc1)C(=O)O	inactive: -2.35%
CCc1ccc(NC(=O)Cn2cnc3c(=O)n(C)c(=O)n(C)c32)cc1	inactive: 0.73%
CCS(=O)(=O)c1nc2ccccc2n1CC(=O)N1CCCCC1	inactive: -4.14%
O=C(Cn1cnc2ccccc21)Nc1ccc(C(=O)O)cc1	inactive: -0.8%
O=C(C1COc2ccccc2O1)N1CCn2c(nc3ccccc32)C1 (stereo not given)	inactive: -1.28%
COc1ccccc1OCC(O)Cn1c(=N)n(CCN2CCCCC2)c2ccccc21 (stereo not given)	inactive: -1.76%
